SMILES strings stand for the structures.

The first assay addresses T1, hP2Y14R (Homo sapiens, UniProt Q15391).
T1 construct: expressed in transfected cells
T1 sequence (Q15391 1-338): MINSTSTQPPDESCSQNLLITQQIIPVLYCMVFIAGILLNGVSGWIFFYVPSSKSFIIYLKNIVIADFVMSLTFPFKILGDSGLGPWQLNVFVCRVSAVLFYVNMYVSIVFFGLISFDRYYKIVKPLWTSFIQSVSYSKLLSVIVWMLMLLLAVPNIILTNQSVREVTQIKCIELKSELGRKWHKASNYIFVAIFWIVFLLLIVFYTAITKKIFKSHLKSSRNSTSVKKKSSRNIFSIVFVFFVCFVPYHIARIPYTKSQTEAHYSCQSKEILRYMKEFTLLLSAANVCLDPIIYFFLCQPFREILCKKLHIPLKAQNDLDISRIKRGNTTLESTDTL
In words: Competitive fluorescent binding assay, flow cytometry of whole hP2Y14R-CHO cells. The following applies: Table 1, fluorescent antagonist tracer 20 nM, mean ± SEM (n = 3-5). As to the method: Cell Culture: Chinese hamster ovary cells stably expressing the hP2Y14—R (CHO-hP2Y14R) were grown in Dulbecco's Modified Eagle's Medium (DMEM)/Ham's F12 (F12) 1:1 supplemented with 10% FBS, 100 units/mL penicillin, […] streptomycin, 2 mM L-glutamine and 0.500 mg/mL G418 Sulfate (Geneticin). Cells were maintained in a humidified atmosphere and sterile incubation conditions held at 37° C. and 5% CO2 (g).
Competitive Assay: Competitive fluorescent assays were performed on a BD FACSCalibur flow cytometer in conjunction with the softwares BD Bioscience PlateManager and CellQuest. All cell culture growth and assays for this procedure were conducted on flat-bottom 96-well plates. CHO-hP2Y14R cells were grown to approximately 80-90% confluency prior to assays. The 96-well plate format enabled four compounds to be analyzed in triplicate per run. All unlabeled ligand compounds are stored as 5 mM stock solutions in dimethyl sulfoxide (DMSO). Serial dilutions of each compound were prepared in complete medium. Cells were initially incubated with unlabeled compounds for 30 min at 37° C. and 5% CO2 (g). […] After three consecutive washes in sterile 1× Dulbecco's Phosphate Buffered Saline (DPBS) minus Ca^2+/Mg^2+, cells were detached from the plate using Corning Cellstripper™ to reduce damaging the hP2Y14R protein. Final cell suspensions for flow cytometry was in DPBS minus Ca^2+/Mg^2+.
IC50 values were determined from the gathered data with the program GraphPad Prism version 7.0.
A general note: In flow cytometry, cells or beads pass a laser one at a time.
The IC50 is the concentration that gives 50% inhibition. `CC(=O)NCCOCCOCCOCCOCCOCCOCCC(=O)N1CCC(c2ccc(-c3cc(C(=O)O)cc4cc(-c5ccc(C(F)(F)F)cc5)ccc34)cc2)CC1` [Compound 13, 4-(4-(1-(2-Oxo-6,9,12,15,18,21-hexaoxa-3-azatetracosan-24-oyl)piperidin-4-yl)phenyl)-7-(4-(trifluoromethyl)phenyl)-2-naphthoic acid] returned an IC50 of 979 ± 331 nM. Same read-out and setting: the figure for `CC(C)(C)OC(=O)NCCOCCOCCOCCOCCOCCOCCC(=O)N1CCC(c2ccc(-c3cc(C(=O)O)cc4cc(-c5ccc(C(F)(F)F)cc5)ccc34)cc2)CC1` [Compound 14, 4-(4-(1-(2,2-Dimethyl-4-oxo-3,8,11,14,17,20,23-heptaoxa-5-azahexacosan-26-oyl)piperidin-4-yl)phenyl)-7-(4-(trifluoromethyl)phenyl)-2-naphthoicacid] is 2830 ± 1150 nM; for `COCCOCCOCCOCCOCCOCCC(=O)N1CCC(c2ccc(-c3cc(C(=O)O)cc4cc(-c5ccc(C(F)(F)F)cc5)ccc34)cc2)CC1` [Compound 11, 4-(4-(1-(2,5,8,11,14,17-Hexaoxaicosan-20-oyl)piperidin-4-yl)phenyl)-7-(4-(trifluoromethyl)phenyl)-2-naphthoic acid] it is 1410 ± 560 nM.

Staying with this assay, now noted: Table 2, fluorescent antagonist tracer 20 nM, mean ± SEM (n = 3-5).
Turning to `NC(=O)c1ccc(-c2cc(C(=O)O)cc(-c3cc4cc(C(F)(F)F)ccc4[nH]3)c2)cc1` [Compound 30, 4′-Carbamoyl-5-(5-(trifluoromethyl)-1H-indol-2-yl)-[1,1′-biphenyl]-3-carboxylic acid], the IC50 worked out at 2440 ± 430 nM. With `NC(=O)c1ccc(-c2cc(C(=O)O)cc(-c3nc4cc(C(F)(F)F)ccc4[nH]3)c2)cc1` [Compound 32, 4′-Carbamoyl-5-(5-(trifluoromethyl)-1H-benzo[d]imidazol-2-yl)-[1,1′-biphenyl]-3-carboxylic acid], the IC50 worked out at 24400 ± 3300 nM. The same measure, in the same setting: the figure for `Cc1c(C(=O)O)cc(-c2cn(-c3ccc(C(F)(F)F)cc3)nn2)cc1-c1ccc(C2CCNCC2)cc1` [Compound 34, 2-Methyl-4′-(piperidin-4-yl)-5-(1-(4-(trifluoromethyl)phenyl)-1H-1,2,3-triazol-4-yl)-[1,1′-biphenyl]-3-carboxylic acid] is 11100 ± 1600 nM.
